Source: ChEMBL document CHEMBL1155491, “Acylurea connected straight chain hydroxamates as novel histone deacetylase inhibitors: Synthesis, SAR, and in vivo antitumor activity” (Bioorg Med Chem Lett, 2010)

Tests used:
[1] = molecular target: T1, Histone deacetylase 8 (Homo sapiens, UniProt Q9BY41); experiment: Inhibition of HDAC8
T1 sequence (Q9BY41 whole entry): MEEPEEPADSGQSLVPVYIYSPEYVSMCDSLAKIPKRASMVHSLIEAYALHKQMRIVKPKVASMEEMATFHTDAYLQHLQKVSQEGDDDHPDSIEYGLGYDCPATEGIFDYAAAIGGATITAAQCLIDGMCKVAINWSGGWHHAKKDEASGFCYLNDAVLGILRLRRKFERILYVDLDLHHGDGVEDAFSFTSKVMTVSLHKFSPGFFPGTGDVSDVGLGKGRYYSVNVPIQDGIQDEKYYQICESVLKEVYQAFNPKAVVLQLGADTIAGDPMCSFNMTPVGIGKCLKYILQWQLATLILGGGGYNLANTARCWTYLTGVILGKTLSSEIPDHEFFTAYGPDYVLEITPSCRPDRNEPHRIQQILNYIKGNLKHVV

[2] = molecular target: T2, Polyamine deacetylase HDAC10 (Homo sapiens, UniProt Q969S8); experiment: Inhibition of HDAC10
T2 sequence (Q969S8 whole entry): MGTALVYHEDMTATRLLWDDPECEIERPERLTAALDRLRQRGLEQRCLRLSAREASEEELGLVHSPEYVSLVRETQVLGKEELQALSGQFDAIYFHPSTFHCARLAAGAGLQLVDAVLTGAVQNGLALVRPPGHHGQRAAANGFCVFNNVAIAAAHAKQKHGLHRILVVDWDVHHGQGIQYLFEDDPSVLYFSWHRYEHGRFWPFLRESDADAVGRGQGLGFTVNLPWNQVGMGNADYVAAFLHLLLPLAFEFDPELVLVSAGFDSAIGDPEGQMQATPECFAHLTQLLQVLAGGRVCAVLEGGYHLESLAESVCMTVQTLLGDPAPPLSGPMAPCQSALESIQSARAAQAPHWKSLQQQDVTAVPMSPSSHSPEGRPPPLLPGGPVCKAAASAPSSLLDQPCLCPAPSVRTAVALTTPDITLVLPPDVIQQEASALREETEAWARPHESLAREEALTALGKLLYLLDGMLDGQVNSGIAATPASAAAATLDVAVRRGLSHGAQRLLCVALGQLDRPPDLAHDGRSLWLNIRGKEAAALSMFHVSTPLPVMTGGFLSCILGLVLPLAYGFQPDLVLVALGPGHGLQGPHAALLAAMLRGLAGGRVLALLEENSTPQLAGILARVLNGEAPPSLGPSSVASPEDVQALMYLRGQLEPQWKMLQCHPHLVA

## O=C(CCCCCCC(=O)Nc1ccccc1)NO [VORINOSTAT]
[1]
  IC50: 272 nM
  Ki: 205 nM
[2]
  Ki: 50 nM
